Measurements taken from ChEMBL document CHEMBL4346723, “Targeting tropomyosin receptor kinase for cancer therapy” (Eur J Med Chem, 2019).

Sequences of proteins named here, by UniProt entry; tags and fusion partners are left off. A change or cut given only in a name is not applied to a line headed by its entry.
UniProt P12931: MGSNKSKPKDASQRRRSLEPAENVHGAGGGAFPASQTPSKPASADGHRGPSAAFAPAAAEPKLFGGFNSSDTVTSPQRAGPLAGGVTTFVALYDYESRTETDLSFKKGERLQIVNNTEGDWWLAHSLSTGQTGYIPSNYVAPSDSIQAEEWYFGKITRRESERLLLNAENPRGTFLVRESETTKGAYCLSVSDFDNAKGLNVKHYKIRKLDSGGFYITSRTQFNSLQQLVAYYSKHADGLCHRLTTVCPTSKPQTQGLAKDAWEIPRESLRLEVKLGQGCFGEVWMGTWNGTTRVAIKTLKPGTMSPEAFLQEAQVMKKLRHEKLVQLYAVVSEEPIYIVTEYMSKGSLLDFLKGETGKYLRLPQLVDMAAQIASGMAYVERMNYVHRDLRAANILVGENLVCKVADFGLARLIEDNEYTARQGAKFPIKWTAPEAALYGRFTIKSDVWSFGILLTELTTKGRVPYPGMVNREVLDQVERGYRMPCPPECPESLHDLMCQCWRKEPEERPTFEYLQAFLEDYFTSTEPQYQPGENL
UniProt Q16620, whole entry: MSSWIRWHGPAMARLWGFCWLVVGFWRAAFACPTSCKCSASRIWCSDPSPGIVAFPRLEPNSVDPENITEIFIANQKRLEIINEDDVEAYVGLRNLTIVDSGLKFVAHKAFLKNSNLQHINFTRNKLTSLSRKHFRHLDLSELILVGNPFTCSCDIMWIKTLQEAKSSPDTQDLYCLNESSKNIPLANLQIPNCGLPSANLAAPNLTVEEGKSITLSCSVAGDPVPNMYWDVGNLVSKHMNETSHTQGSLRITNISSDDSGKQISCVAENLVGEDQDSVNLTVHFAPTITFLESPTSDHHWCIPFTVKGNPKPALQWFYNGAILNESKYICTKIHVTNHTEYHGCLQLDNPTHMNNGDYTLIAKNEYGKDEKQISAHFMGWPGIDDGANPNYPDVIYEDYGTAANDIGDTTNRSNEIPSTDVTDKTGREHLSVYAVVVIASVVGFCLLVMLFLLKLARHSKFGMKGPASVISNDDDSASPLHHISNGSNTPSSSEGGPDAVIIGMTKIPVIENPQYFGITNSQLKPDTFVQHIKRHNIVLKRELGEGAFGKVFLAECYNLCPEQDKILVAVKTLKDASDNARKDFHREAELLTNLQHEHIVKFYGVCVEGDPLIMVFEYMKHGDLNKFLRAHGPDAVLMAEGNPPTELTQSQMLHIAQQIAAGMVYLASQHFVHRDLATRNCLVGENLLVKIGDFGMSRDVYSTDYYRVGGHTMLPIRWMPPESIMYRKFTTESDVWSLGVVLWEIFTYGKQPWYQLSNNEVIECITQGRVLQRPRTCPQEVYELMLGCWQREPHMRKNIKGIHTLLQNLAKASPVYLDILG

Legend:
[1] = target: Proto-oncogene tyrosine-protein kinase Src (Homo sapiens, UniProt P12931)
[2] = target: BDNF/NT-3 growth factors receptor (Homo sapiens, UniProt Q16620); experiment: Inhibition of TRKB (unknown origin)

Cc1cn(-c2cc(C(=O)Nc3cccc(Nc4ccc5c(c4)NC(=O)/C5=C\c4ccc[nH]4)c3)cc(C(F)(F)F)c2)cn1
IC50 [1]: 53 nM
IC50 [2]: 14 nM
